According to patent US20200404921A1, “SOIL TREATMENT WITH METAM SALTS AND ONE OR MORE OF CALCIUM THIOSULFATE, CALCIUM CHLORIDE AND CALCIUM NITRATE” (Tessenderlo Kerley, Inc., priority 2018, published 2020):

Conditions: […], or 0.2% to 0.5%

[K+].[OH-] [KOH, Potassium hydroxide]
KOH concentration that prevents precipitation of diluted calcium thiosulfate, calcium chloride and/or calcium nitrate solutions in water: less than 1 % by weight
